The values below come from ChEMBL document CHEMBL1129787, “Synthesis of potent cyclic hexapeptide NK-1 antagonists. Use of a minilibrary in transforming a peptidal somatostatin receptor ligand into an NK-1 receptor ligand via a polyvalent peptidomimetic” (J Med Chem, 1996).

Sequences of proteins named here, by UniProt entry; tags and fusion partners are left off.
UniProt P25103, whole entry: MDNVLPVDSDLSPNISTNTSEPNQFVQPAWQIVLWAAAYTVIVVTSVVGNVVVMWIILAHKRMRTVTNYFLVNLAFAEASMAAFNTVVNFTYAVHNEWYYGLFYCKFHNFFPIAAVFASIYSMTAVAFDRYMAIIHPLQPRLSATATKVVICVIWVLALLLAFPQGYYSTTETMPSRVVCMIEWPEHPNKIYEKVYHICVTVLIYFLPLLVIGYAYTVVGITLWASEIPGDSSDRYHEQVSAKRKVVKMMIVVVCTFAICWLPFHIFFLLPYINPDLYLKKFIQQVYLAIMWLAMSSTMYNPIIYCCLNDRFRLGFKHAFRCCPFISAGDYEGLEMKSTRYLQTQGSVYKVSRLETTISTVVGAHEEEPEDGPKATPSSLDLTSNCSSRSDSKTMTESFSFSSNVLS

Experiment [1] concerns the target Somatostatin receptor. As to the kind of experiment: Ability to inhibit binding of [3I]-CGP 23996 to somatostatin receptor on membranes from AtT-20 cells. The experiment is classed as cell-based. The conditions noted are these: att20.
Experiment [2] deals with Substance-P receptor (Homo sapiens, UniProt P25103). As to the kind of experiment: Binding affinity towards Tachykinin receptor 1. In a few lines: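 NK-1 receptor inhibition assay. IC50 is reported in nM as the mean ± SD.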

Structures are written as SMILES.

Take `NCCCCCOC[C@H]1O[C@@H](OCCc2c[nH]c3ccccc23)[C@H](OCc2ccccc2)[C@@H](OCc2ccccc2)[C@@H]1OCc1ccccc1`: the IC50 in experiment [1] came out at 5 µM; in experiment [2], 120 µM.

For orientation: IC50 means the concentration that inhibits the measured activity by half. Low values mean greater potency, high ones weaker potency.
